The target of test [1] is T1, BACE1 (Homo sapiens, UniProt P56817). As to the kind of experiment: In Vitro BACE Cell-based Assay (HEK cell assay): Aβ40 in conditioned medium of cells stably expressing Amyloid Precursor Protein, sandwich ELISA. The settings on record: HEK cell assay (uM), IC50 class symbols. Here is the method: In Vitro BACE Cell-based Assay
The cell-based assay measures inhibition or reduction of Aβ40 in conditioned medium of test compound treated cells expressing amyloid precursor protein.
Cells stably expressing Amyloid Precursor Protein (APP) were plated at a density of 40K cells/well in 96 well plates (Costar). The cells were cultivated for 24 hours at 37° C. and 5% CO2 in DMEM supplemented with 10% FBS. The test compounds were then added to cells in 10-point dose response concentrations with the starting concentration being either 100 μM or 10 μM. The compounds were diluted from stock solutions in DMSO and the final DMSO concentration of the test compounds on cells was 0.1%. After 24 h of incubation with the test compounds the supernatant conditioned media was collected and the Aβ 40 levels were determined using a sandwich ELISA. The IC50 of the compound was calculated from the percent of control or percent inhibition of Aβ 40 as a function of the concentration of the test compound. […]
Cellular supernatants were incubated with the capture antibody for 3 h at 4° C., followed by 3 wash steps in TBS-tween (0.05%). […] The final readout of the ELISA is Time-Resolved Fluorescence (counts per minute) using Delfia reagents Streptavidin-Europium and Enhancement solutions (Perkin Elmer) and the Victor 2 multilabel counter (Perkin Elmer).

The chains behind the UniProt entries cited, without tags or fusion partners. Residues count along the entry.
UniProt P56817, 46-501, species assumed: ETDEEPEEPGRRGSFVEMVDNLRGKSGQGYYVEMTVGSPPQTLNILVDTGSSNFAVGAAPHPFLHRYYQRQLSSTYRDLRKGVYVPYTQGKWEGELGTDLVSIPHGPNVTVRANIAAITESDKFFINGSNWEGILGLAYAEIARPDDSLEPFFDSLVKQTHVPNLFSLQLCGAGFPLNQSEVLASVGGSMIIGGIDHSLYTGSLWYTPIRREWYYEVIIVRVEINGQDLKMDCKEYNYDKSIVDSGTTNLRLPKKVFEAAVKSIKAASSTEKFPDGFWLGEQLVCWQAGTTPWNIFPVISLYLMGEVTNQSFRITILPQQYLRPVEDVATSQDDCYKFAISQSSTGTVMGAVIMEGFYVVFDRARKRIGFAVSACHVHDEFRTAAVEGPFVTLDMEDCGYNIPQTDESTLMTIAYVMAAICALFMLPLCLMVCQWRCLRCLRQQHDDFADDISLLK

Test [2] concerns the target T1, BACE1. The test is described as follows: In Vitro Enzymatic BACE FRET (Fluorescence Resonance Energy Transfer) Assay. Format: biochemical. The following applies: BACE1 FRET assay (uM), in vitro BACE FRET enzyme assay, IC50 class symbols. Here is the method: In Vitro Enzymatic BACE FRET (Fluorescence Resonance Energy Transfer) Assay (Enzyme Assay Data in the Example Tables I, II, III & IV) The assay buffer used in this screen is 0.05 M acetate, pH 4.2, 10% DMSO final, 100 uM genapol (which is a nonionic detergent, below its Critical Micelle Concentration). […] This assay is effectively started by the addition of FRET substrate (50 nM) and the combination is incubated for one hour. The FRET assay is terminated with by addition of Tris buffer, which raises the pH to neutrality, and the fluorescence is determined. The FRET substrate is a peptide with commercially available fluorophore and quencher, on opposite sides of the BACE cleavage site. […]

Usually IC50 stands for the concentration that inhibits the measured activity by half.

On to `NC1=N[C@@]2(CO1)c1cc(-c3cccnc3F)ccc1Oc1cnc([C@H]3CCCCO3)cc12` [compound 370], for which the IC50 in test [1] and in test [2] was under 0.1 µM throughout.

The record behind these values is patent US8426447B2, “Spiro-tricyclic ring compounds as beta-secretase modulators and methods of use” (Amgen Inc., priority 2008, dated 2013).
